Test results published in ChEMBL document CHEMBL4811301, “Synthesis and biological evaluation of 3-styrylchromone derivatives as selective monoamine oxidase B inhibitors” (Bioorg Med Chem, 2021).

Chains of the proteins cited; added tags and fusions are not shown.
UniProt P21397, whole entry: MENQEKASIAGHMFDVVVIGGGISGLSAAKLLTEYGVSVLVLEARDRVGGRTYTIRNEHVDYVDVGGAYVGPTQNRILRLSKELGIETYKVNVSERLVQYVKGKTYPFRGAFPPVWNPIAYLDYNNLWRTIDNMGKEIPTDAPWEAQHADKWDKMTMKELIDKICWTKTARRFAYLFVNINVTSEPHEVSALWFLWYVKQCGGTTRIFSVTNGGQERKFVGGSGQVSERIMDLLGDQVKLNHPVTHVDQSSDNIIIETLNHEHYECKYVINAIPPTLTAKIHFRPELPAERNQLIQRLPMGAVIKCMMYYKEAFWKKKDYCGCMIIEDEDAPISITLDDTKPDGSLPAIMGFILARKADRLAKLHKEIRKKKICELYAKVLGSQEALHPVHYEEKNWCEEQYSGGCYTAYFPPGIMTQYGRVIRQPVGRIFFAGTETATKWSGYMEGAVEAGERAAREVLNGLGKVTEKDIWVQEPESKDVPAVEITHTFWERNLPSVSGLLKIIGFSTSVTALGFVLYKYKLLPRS

Biological target: Amine oxidase [flavin-containing] A (Homo sapiens, UniProt P21397)
Assay: Inhibition of human recombinant MAO-A […] as incubated for 20 mins measuring increase in emission signal at 310 nm multimode plate reader assay

SMILES: C#CCN(C)Cc1ccccc1 [PARGYLINE]
- IC50: 4.6 µM
